Data set [1] has as its system ARID1A-WT HCT116 cells. In words: Drug library screen, cell viability (CellTiter-Glo). Conditions: 10 μM for 5 days, relative to cells treated with solvent (DMSO). For orientation: In ATP-based viability assays light output follows the ATP content of the culture.
Data set [2] concerns ARID1A-WT HCT116 cells.

Like-named read-outs stand apart in the source and are kept apart here.

Take `O=C(Nc1ccc2c(O)cc(S(=O)(=O)O)cc2c1)Nc1ccc2c(O)cc(S(=O)(=O)O)cc2c1` [AMI-1]: the “Cell viability, WT” value in the data set on ARID1A-WT HCT116 cells [1] was determined as 88.42.
In the case of JAK3 Inhibitor VI, the “Cell viability, WT” value in the data set with ARID1A-WT HCT116 cells [2] came out at 7.509. In addition, the “Cell viability, KO” value with ARID1A-KO HCT116 cells was 17.2416.
As for `COC(=O)[C@H](CC(C)C)NC(=O)c1ccc(NC[C@@H](N)CS)cc1-c1ccccc1` [GGTI-286], in the data set on ARID1A-WT HCT116 cells [1], the “Cell viability, WT” value is 133.2565.

The record behind these values is patent publication US20220087987A1, “A METHOD FOR TREATING SWI/SNF COMPLEX-DEFICIENT CANCERS COMPRISING GLUTATHIONE (GSH) METABOLIC PATHWAY INHIBITOR” (National Cancer Center, priority 2018, published 2022).
